# According to BindingDB's records for US9162983:
# The chains behind the UniProt entries cited, without tags or fusion partners. Residues count along the entry.
# UniProt P22303, 32-614 limits assumed: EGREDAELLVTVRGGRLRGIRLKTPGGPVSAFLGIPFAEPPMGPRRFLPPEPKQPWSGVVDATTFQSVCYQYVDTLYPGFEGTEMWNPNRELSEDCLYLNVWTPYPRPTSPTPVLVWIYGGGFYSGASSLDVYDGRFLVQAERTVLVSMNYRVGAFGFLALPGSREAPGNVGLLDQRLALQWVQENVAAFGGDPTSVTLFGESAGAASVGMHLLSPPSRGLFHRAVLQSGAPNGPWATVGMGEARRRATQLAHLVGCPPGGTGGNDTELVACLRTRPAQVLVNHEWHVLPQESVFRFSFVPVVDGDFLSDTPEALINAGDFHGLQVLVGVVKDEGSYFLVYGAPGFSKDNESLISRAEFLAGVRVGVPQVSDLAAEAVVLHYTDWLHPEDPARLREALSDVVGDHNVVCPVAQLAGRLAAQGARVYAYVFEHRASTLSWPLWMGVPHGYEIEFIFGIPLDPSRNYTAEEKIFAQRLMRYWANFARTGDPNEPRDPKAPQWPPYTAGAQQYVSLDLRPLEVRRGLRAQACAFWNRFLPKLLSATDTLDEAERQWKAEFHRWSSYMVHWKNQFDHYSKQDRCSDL
# Biological target: Acetylcholinesterase (Homo sapiens, UniProt P22303)
# Assay: Enzyme Inhibition Assay
smiles,measurement,value
CC(=O)/C(=N\O)C(=O)NCC1CCN(Cc2ccccc2)CC1,Ki,2.3 µM
O=C(/C=N/O)c1cccnc1OCC1CCN(Cc2ccccc2)CC1,Ki,0.18 µM
